Yeast mating assay 1: variants of the scFv Ab-14

Target: peptide PDVDLGDISGINAS, taken from heptad repeat 2 (HR2) of SARS-CoV-2 spike.

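Phage display of a naive human antibody library on the peptide gave the parent. Library AAYL50 holds single substitutions and randomly drawn double and triple substitutions in the CDRs. The scFvs were displayed on barcoded MATa yeast, the peptide on MATalpha yeast. Pairs that bind mate more often; barcode pairs of the diploids are counted by sequencing. Scores were corrected for input abundance and mapped to Kd with protein pairs of known affinity run in the same pool. Each pool was mated in three replicate cultures.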

Parent scFv Ab-14: VH joined to VL by three GGGGS repeats. Changes lie in the light chain CDRs alone.
VH: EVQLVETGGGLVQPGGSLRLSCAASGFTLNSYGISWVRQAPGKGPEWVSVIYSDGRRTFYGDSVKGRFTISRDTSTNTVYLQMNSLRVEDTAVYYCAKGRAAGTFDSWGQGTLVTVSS
VL: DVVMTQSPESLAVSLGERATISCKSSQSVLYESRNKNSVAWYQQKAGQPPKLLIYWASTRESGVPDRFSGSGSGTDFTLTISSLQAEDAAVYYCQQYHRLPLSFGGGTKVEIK

Substitutions are numbered in sequence along the VL above, starting at 1 (not Kabat).
Values are log10 of the apparent Kd in nM; lower means stronger binding.
A mean of the replicates is given; it leaves out those without a signal.
An entry "not detected" has no value in the source: the pair was not observed among the diploids in any replicate. This suggests poor binding but is not conclusive.
Empty control strains, which show no peptide, gave a signal in 18% of pairings with library AAYL50; the median was 4.19 and 95% of these signals were weaker than 2.99. No background was subtracted. Also given: how often the same scFv was detected with the empty control strains.

{"changes": "S33E/R34I/A40T", "mean log10 Kd (nM)": "not detected", "detected": "0/3", "control signals": "0/9"}
{"changes": "T59I/R60Q", "mean log10 Kd (nM)": "3.02", "detected": "3/3", "control signals": "1/9"}
{"changes": "W56T/Q96D/Y97H", "mean log10 Kd (nM)": "not detected", "detected": "0/3", "control signals": "0/9"}
{"changes": "S38F/E61P/R99S", "mean log10 Kd (nM)": "4.59", "detected": "2/3", "control signals": "2/9"}
{"changes": "S28D/L30K/Y31T", "mean log10 Kd (nM)": "0.75", "detected": "3/3", "control signals": "1/9"}
{"changes": "K24M/S58F/T59D", "mean log10 Kd (nM)": "not detected", "detected": "0/3", "control signals": "1/9"}
{"changes": "W56K/A57W/E61P", "mean log10 Kd (nM)": "5.09", "detected": "1/3", "control signals": "0/9"}
{"changes": "S28C/V29Q/N37D", "mean log10 Kd (nM)": "2.36", "detected": "3/3", "control signals": "4/9"}
{"changes": "Q27R/A57V/S58D", "mean log10 Kd (nM)": "2.17", "detected": "3/3", "control signals": "2/9"}
{"changes": "S28Q/R34Q/L100C", "mean log10 Kd (nM)": "0.66", "detected": "3/3", "control signals": "1/9"}
{"changes": "L30V/Q96C/R99G", "mean log10 Kd (nM)": "not detected", "detected": "0/3", "control signals": "0/9"}
{"changes": "E32G/S38K/L100G", "mean log10 Kd (nM)": "3.30", "detected": "1/3", "control signals": "1/9"}
{"changes": "S26I/S33F/L102Q", "mean log10 Kd (nM)": "not detected", "detected": "0/3", "control signals": "1/9"}
{"changes": "K24Y/S38H/S103N", "mean log10 Kd (nM)": "not detected", "detected": "0/3", "control signals": "0/9"}
{"changes": "Y31G/S38I/L100P", "mean log10 Kd (nM)": "4.35", "detected": "3/3", "control signals": "3/9"}
{"changes": "S26W/A57Q/P101W", "mean log10 Kd (nM)": "not detected", "detected": "0/3", "control signals": "1/9"}
{"changes": "Q27F/Q96M/Y97L", "mean log10 Kd (nM)": "4.46", "detected": "1/3", "control signals": "0/9"}
{"changes": "V29R/N35W/H98D", "mean log10 Kd (nM)": "1.07", "detected": "3/3", "control signals": "0/9"}
{"changes": "A57T/S58V/H98I", "mean log10 Kd (nM)": "3.36", "detected": "3/3", "control signals": "4/9"}
{"changes": "N35I/W56S/L102K", "mean log10 Kd (nM)": "0.97", "detected": "3/3", "control signals": "0/9"}
{"changes": "V39C/W56E/A57S", "mean log10 Kd (nM)": "0.39", "detected": "3/3", "control signals": "1/9"}
{"changes": "E32I/K36L/Q95C", "mean log10 Kd (nM)": "not detected", "detected": "0/3", "control signals": "0/9"}
{"changes": "Q27S/A40V/A57P", "mean log10 Kd (nM)": "4.63", "detected": "1/3", "control signals": "2/9"}
{"changes": "K24C/S26D/E32N", "mean log10 Kd (nM)": "1.20", "detected": "3/3", "control signals": "2/9"}
{"changes": "N37C/Q95M/R99S", "mean log10 Kd (nM)": "not detected", "detected": "0/3", "control signals": "1/9"}
{"changes": "S26D/S58W", "mean log10 Kd (nM)": "3.25", "detected": "3/3", "control signals": "2/9"}
{"changes": "L30A/Y31E", "mean log10 Kd (nM)": "1.49", "detected": "3/3", "control signals": "5/9"}
{"changes": "Y31S/S58Q/L102M", "mean log10 Kd (nM)": "2.87", "detected": "3/3", "control signals": "3/9"}
{"changes": "A57T/R60G/R99K", "mean log10 Kd (nM)": "not detected", "detected": "0/3", "control signals": "0/9"}
{"changes": "K24A/S28A/S62Q", "mean log10 Kd (nM)": "0.82", "detected": "3/3", "control signals": "0/9"}

The closing 4 entries, repeated:

changes,mean log10 Kd (nM),detected,control signals
L30A/Y31E,1.49,3/3,5/9
Y31S/S58Q/L102M,2.87,3/3,3/9
A57T/R60G/R99K,not detected,0/3,0/9
K24A/S28A/S62Q,0.82,3/3,0/9

Source: Engelhart et al. 2022 (doi:10.1038/s41597-022-01779-4), MIT Lincoln Laboratory and A-Alpha Bio; data file from the FLAb repository.